Values quoted from earlier work, collected in article PMC7459591 (Marine Drugs, 2020).

Amino acid sequences for entries named in this document (tags omitted).
UniProt P08510, whole entry: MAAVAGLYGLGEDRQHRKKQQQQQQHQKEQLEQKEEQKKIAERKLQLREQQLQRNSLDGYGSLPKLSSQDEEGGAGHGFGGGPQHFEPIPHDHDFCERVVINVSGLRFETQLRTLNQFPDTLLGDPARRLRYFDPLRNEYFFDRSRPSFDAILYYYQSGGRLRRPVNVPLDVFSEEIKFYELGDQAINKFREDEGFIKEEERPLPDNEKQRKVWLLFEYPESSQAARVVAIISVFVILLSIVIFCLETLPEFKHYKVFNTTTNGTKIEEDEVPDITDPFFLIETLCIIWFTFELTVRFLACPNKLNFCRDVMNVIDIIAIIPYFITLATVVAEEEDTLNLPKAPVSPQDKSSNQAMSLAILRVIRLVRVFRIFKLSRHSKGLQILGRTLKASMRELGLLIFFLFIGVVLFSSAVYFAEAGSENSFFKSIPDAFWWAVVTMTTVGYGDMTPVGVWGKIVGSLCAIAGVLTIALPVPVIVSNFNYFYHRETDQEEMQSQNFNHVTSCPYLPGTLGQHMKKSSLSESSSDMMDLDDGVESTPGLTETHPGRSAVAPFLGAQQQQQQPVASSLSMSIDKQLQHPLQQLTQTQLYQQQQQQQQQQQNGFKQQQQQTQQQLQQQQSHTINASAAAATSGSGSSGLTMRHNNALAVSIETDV

Target: Shaker potassium channel (Drosophila melanogaster) (UniProt P08510)
Conditions: cited from earlier work

For Conorfamide-Sr3 (from UniProt P0DM28), the Kd is listed as 2700 nM.
